The values below come from article PMC2835692 (Journal of cardiovascular pharmacology, 2009).

Protein sequences, listed by entry. Tags and fused reporters are not part of them. Residues count along the entry.
UniProt P22894, 100-262 limits assumed: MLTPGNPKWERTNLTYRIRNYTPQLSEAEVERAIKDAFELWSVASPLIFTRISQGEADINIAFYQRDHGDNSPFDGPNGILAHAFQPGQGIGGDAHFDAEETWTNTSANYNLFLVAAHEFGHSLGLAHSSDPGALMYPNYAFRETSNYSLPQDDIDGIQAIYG
UniProt P08253, 110-446 limits assumed: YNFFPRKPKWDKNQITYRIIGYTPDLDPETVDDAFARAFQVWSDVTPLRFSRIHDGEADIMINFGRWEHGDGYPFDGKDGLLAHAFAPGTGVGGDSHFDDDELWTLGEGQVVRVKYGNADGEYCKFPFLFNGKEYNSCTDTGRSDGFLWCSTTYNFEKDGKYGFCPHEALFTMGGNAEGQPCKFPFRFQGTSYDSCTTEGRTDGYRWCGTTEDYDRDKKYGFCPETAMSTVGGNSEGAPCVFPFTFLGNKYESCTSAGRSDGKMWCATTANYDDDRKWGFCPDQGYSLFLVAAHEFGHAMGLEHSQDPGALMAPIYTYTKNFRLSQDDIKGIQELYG

Holding throughout (assay type): biochemical
For assay [1], the target named is T1, recombinant human MMP-1 catalytic domain (Homo sapiens, UniProt P03956).
T1 sequence (P03956 100-269 limits assumed): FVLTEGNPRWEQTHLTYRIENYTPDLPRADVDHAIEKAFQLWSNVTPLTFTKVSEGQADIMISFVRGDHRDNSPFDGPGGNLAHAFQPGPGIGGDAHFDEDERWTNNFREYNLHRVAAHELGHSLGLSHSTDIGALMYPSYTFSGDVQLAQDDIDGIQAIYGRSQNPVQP
The assay is described as follows: Recombinant MMP fluorescent assay, MMP-1.

The target in assay [2] is recombinant human MMP-8 catalytic domain (Homo sapiens, UniProt P22894). The assay is described as follows: Recombinant MMP fluorescent assay, MMP-8.
Assay [3] concerns the target recombinant human MMP-2 catalytic domain (Homo sapiens, UniProt P08253). The assay can be described thus: Recombinant MMP fluorescent assay, MMP-2. To be noted: read-out: IC50 MMP-2; 1 hour preincubation at 37°C.

For the molecule `COc1ccc(S(=O)(=O)N(Cc2cccnc2)[C@@H](C(=O)NO)C(C)C)cc1` [CGS27023A], the IC50 in assay [1] (IC50 MMP-1, 1 hour preincubation at 37°C) is less than 50 nM; in assay [1] (IC50 MMP-1, as stated in discussion text), not above 50 nM; in assay [2] (IC50 MMP-8, 1 hour preincubation at 37°C) it was less than 50 nM; in assay [2] (IC50 MMP-8, as stated in discussion text) it was not above 50 nM.

Turning to `CC(C)[C@H](NS(=O)(=O)c1ccc(-c2ccc(Br)cc2)cc1)C(=O)O` [PD166793, reference compound], the IC50 in assay [3] was less than 50 nM.

By IC50 is commonly meant the concentration that inhibits the measured activity by half.
